Source: PubChem BioAssay AID1347428 (National Center for Advancing Translational Sciences (NCATS), 2020)
Only a part is listed here, and it is no random draw. Some of these compounds have results that are not shown, active ones among them. Results filed as inconclusive are left out. The source made the active and inactive calls. Calls follow the shape of the dose curve; as a rule, active = well fitted inhibition curve with a large enough effect; inconclusive = small, poorly fitted or top-dose-only effect; inactive = no such curve, though single readings can be large or run the other way.

Amino acid sequences for entries named in this document (tags omitted).
UniProt Q9GZX7, whole entry: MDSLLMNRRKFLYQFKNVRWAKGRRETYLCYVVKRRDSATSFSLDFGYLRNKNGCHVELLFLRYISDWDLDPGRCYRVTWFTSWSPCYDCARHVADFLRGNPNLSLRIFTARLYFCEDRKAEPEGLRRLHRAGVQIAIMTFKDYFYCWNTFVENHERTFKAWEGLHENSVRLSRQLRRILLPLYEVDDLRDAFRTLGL

Each compound was assayed against Single-stranded DNA cytosine deaminase (Homo sapiens) (UniProt Q9GZX7) (assay: Primary qHTS assay for inhibitors of Activation Induced Cytidine Deaminase (AID): AID signal). Settings: AID deamination FRET fluorescence, UDG-coupled, 4 h; at 115 µM (top of the series).
Source text: Assay Provider (PI) Patricia Gearhart Ph.D.
National Institute on Aging
National Institute of Health (NIH), Bethesda, MD
Assay Provider (PI) Rahul Kohli Ph.D.
Perelman School of Medicine
University of Pennsylvania, Philadelphia, PA
Activation-Induced Deaminase (AID) is a cytosine deaminase which converts cytosine into uracil within stretches of ssDNA. The presence of uracil in DNA initiates a cascade of mutagenic DNA repair to introduce point mutations and DNA double strand breaks. Specific targeting of AID to the immunoglobulin heavy chain loci (Igh) promotes mutagenesis in the antibody variable region for somatic hypermutation (SHM) or switch regions leading to class switch recombination (CSR). However, AID also plays a role in accumulating unnecessary mutations across the genome. Mis-targeting of AID results in the initiation of tumor development and leads to greater drug resistance among cancer cells when continually expressed. To identify an AID inhibitor, a small molecule library will be screened in collaboration with NCATS core facility at NIH. To confirm biological function, inhibitors will be examined in an in vitro murine B-cell activation assay and subsequent secondary validation screens. Top molecules will be further screened to identify inhibitory efficacy against a wild type primary splenocytes assay. Using these approaches, we hope to identify a small molecule with great efficacy and low toxicity for use as a molecular probe to further characterize AID's intricacies, or even as a therapeutic.
A FRET based analysis of cytosine deamination, was developed to identify potential inhibitors of AID catalytic activity. This screen has two signal output, Read 1 evaluates the AID inhibition response. The second readout (Read 2) evaluates UDG response and is uses as a counterscreen to exclude false positive inhibitors. Inhibition in AID and inactivity in the UDG signal is the desired outcome for this assay.
SEQUENCE No. (e.g., 1, 2, 3, etc.); […] (e.g., Cells, Incubation, Reagent, etc.); VALUE; DESCRIPTION
1a; Reagent; 3 uL; [4/3x] 1 uM AID/2.67 U/mL UDG
1b; Reagent; 3 uL; 2 U/mL UDG
1c; Reagent; 3 uL; 1 uM AID
2a; Compound; 46 nL; Follow-up plates (0.64 uM - 10 mM)
2b; Control; 46 nL; ATA ([…] - 10 mM)
3; Time; 10 min; incubation at room temperature
5; Time; 4 hr; incubation at room temperature
6; Reagent; 4 uL; [2x] 250 mM NaOH
7; Time; 15 sec; centrifuge at 1000 rpm
8; Time; 30 min; incubation at room temperature
9a; Detection; fluorescence (Read 1: AID); EnVision (PerkinElmer) plate reader, 540 excitation and 590 emission filters
9b; Detection; fluorescence (Read 2: UDG); EnVision (PerkinElmer) plate reader, 560 excitation and 665 emission filters
NOTES (numbers refer to sequence above)
1a; Reagents were dispensed in a medium-binding black solid-bottom Greiner plates (789176F) using a BioRptr liquid dispenser. Dispense 3 uL of [4/3x] 1 uM AID (provided by Kohli lab) and [4/3x] 2 U/mL UDG (NEB M0280L) into columns 1, 2, 5 to 48.
1b; Dispense 3 uL of [4/3x] 2 U/mL UDG into column 3.
1c; Dispense 3 uL of [4/3x] 1 uM AID into column 4.
2a; Compound (7-points [uM] (0.64; 3.2; 16; 80; 400; 2,000; 10,000; 20,000) double pin-transferred (Dip Factor = 2) using the Kalypsys (Wako USA) pintool equipped with a 1536 pinhead for a final concentration range of 7.32 nM - 114 uM.
2b; 10 mM Aurintricarboxylic Acid (Sigma A1895) (ATA, 8-point, n = 2, 1:2.5 dilution in column 2) double pin-transferred (Dip Factor = 2) using the Kalypsys (Wako USA) pintool equipped with a 1536 pinhead for a [final] range of 186 nM - 114 uM.
3; Room temperature incubation.
4; Dispense 1 uL of substrate mixture from the Kohli lab [4x] […] DJC20 and [4x] 250 nM DJC23 into columns 1 to 48 .
5; Room temperature incubation.
6; Dispense 4 uL of substrate mixture [2x] 250 mM NaOH into columns 1 to 48.
7; Centrifugation step to remove bubbles.
8; Room temperature incubation
9a; Fluorescence signal (column label AID) was read using the EnVision plate reader. […]
% is scaled to controls: 0 for no effect and ±100 for the full control effect.
Also: nearly all actives have a fitted effect of over 25% in size.

Row | Structure (SMILES) | activity change, negative = inhibition
1 | O=C(CCC1CCCCC1)N1CCN(C/C=C/c2ccccc2)CC1 | inactive: -16.6%
2 | CN(C)C1(CNC(=O)c2cccc(Cl)c2)CCCCC1 | inactive: -0.492%
3 | CN(C)C1(CNC(=O)c2ccccc2F)CCCCC1 | inactive: 1.16%
4 | CN(C)C1(CNC(=O)c2ccccc2[N+](=O)[O-])CCCCC1 | inactive: 39%
5 | CCCCOc1ccccc1C(=O)NCC1(N(C)C)CCCCC1 | inactive: -22.8%
6 | CN(C)C1(CNC(=O)c2cccs2)CCCCC1 | inactive: 1.24%
7 | CN(C)CCOC(=O)C(O)(c1ccccc1)C1CCCCC1 (centres undefined) | inactive: 3.14%
8 | CCOc1cccc(C(=O)NCC2(N(C)C)CCCCC2)c1 | inactive: -5.76%
9 | COc1ccc(C(=O)NCC2(N(C)C)CCCCC2)cc1Cl | inactive: 15.2%
10 | COc1cccc(C(=O)NCC2(N3CCOCC3)CCCCC2)c1 | inactive: -8.06%
11 | CC(C)COc1ccc(C(=O)NCC2(N(C)C)CCCCC2)cc1 | inactive: -11.8%
12 | Cc1cccc(C(=O)NCC2(N(C)C)CCCCC2)c1 | inactive: 17.7%
13 | COc1cc(C(=O)NCC2(N(C)C)CCCCC2)cc(OC)c1OC | inactive: 1.83%
14 | CC(C)Oc1ccc(C(=O)NCC2(N(C)C)CCCCC2)cc1 | inactive: -17%
